From US10781472B2, “Systems and methods for determining cyclic nucleotide concentration and related pathway activation” (PROMEGA CORPORATION, priority 2005, dated 2020)

By UniProt entry, the sequences of proteins in these tests, tags left out.
UniProt P21728, whole entry: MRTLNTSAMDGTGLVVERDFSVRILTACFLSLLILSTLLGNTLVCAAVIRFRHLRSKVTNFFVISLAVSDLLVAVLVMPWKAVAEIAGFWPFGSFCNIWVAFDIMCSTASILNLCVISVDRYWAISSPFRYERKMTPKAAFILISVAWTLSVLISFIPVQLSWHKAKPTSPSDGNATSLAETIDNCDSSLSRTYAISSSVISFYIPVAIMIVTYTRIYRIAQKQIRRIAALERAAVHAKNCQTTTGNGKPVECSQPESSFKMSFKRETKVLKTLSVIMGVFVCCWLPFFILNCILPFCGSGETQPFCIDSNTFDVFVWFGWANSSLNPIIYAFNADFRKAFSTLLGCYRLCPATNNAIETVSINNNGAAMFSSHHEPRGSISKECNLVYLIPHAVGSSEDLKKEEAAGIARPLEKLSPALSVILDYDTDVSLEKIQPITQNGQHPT

Molecular target: dopamine receptor D1 (DRD1) (Homo sapiens, UniProt P21728)
Settings: 1 μg DRD1 plasma membranes, 15 min induction (FIG. 10)

## CCCN1CCC[C@@H]2Cc3n[nH]cc3C[C@H]21 [quinpirole]
  luminescent signal as agonist concentration increases (DRD1 activation): not
